By UniProt entry, the sequences of proteins in these tests, tags left out.
UniProt Q99720, whole entry, looked up: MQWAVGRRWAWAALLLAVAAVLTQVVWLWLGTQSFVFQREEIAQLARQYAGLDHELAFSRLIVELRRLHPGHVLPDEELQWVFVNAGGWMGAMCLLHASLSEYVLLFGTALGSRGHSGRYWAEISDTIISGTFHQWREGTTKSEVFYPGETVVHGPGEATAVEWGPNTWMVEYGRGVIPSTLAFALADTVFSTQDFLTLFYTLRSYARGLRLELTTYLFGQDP

In the assay the target is Sigma non-opioid intracellular receptor 1 (Homo sapiens, UniProt Q99720). As to the kind of experiment: Inhibition of [3H](+)-SKF-10047 binding to sigma receptor.
With `C(=C\c1ccccc1)/CNC1CCN(Cc2ccccc2)CC1.O=C(O)/C=C/C(=O)O`, affinity was put at a Ki of 16 nM.
On to `C(#Cc1ccccc1)CNC1CCN(Cc2ccccc2)CC1.O=C(O)/C=C/C(=O)O`, for which the Ki is 2.5 nM.
The value for `CN(C(=O)C#Cc1ccccc1)C1CCN(Cc2ccccc2)CC1.O=C(O)/C=C/C(=O)O` was 4 nM; that for `O=C(C#Cc1ccccc1)NC1CCN(Cc2ccccc2)CC1.O=C(O)/C=C/C(=O)O` was 8 nM; that for `C(=C\c1ccccc1)/CN(C/C=C/c1ccccc1)C1CCN(Cc2ccccc2)CC1.O=C(O)/C=C/C(=O)O` was 7 nM.
The value for `CN(C(=O)/C=C/c1ccccc1)C1CCN(Cc2ccccc2)CC1.O=C(O)/C=C/C(=O)O` was 5 nM; that for `CN(C/C=C/c1ccccc1)C1CCN(Cc2ccccc2)CC1.O=C(O)/C=C/C(=O)O` was 2.6 nM; that for `CN(CC#Cc1ccccc1)C1CCN(Cc2ccccc2)CC1.O=C(O)/C=C/C(=O)O` was 5 nM.
The compound `O=C(/C=C/c1ccccc1)NC1CCN(Cc2ccccc2)CC1.O=C(O)/C=C/C(=O)O` came in with a Ki of 15 nM.

These data come from ChEMBL document CHEMBL1127992, “Novel conformationally restricted aromatic piperidines as selective sigma receptor ligands” (Bioorg Med Chem Lett, 1994).
